Experimental data reported in patent publication US20220168427A1 (Ranok Therapeutics (Hangzhou) Co. Ltd., priority 2019, published 2022).

Experiments:
BRD4 (BD1+BD2) = BRD4 (BD1+BD2) (Homo sapiens, UniProt O60885); experiment: BRD4 Binding Homogeneous Time Resolved Fluorescence (HTRF) Assay; details: read-out: BRD4 Binding Potency, tested form: Cl
MV4-11 cells = experiment: MV4-11 Cell Cytotoxicity Assay; assay type: cell-based, human; details: read-out: MV4-11 cytotoxicity; 72 hr, CCK-8; tested form: Cl

## CCn1c(=O)/c(=C2\Sc3ccccc3N2C)s/c1=C\c1cccc[n+]1CCCCCCNC(=O)C[C@@H]1N=C(c2ccc(Cl)cc2)c2c(sc(C)c2C)-n2c(C)nnc21
BRD4 (BD1+BD2)
  IC50: 100 to 1000 nM
MV4-11 cells
  IC50: > 1000 nM
